Experimental data reported in patent US10465009B2, “BCMA antigen binding proteins” (Amgen Inc., priority 2012, dated 2019).

What was measured:
Type in all cases: cell-based, human
KMS28PE = assay: CellTiter-Glo Luminescent Cell Viability Assay, KMS28PE
Procedure: (§1) The ADCs were tested for the ability to target and kill BCMA-expressing myeloma cells. The CellTiter-Glo® Luminescent Cell Viability Assay is a homogeneous method to determine the number of viable cells in culture based on quantitation of the ATP present, which signals the presence of metabolically active cells. The CellTiter-Glo® Assay is applicable to cytotoxicity assays (see http://www.promega.com/products/cell-health-assays/cell-viability-assays/celltiterglo-luminescent-cell-viability-assay/ for more information). The cell viability assay was used to assess the relative killing capacity of various ADCs on various multiple myeloma cell lines and B-cell lines. […] Luminescence was read on an EnVision™ Multilabel reader (PerkinElmer) or Analyst HT plate reader (LJL Biosciences). The data was analyzed and graphed using GraphPad Prism™ to determine the relative efficacy of the ADCs on various cancer cell lines.
(§2) The 2A1CV5-MCC-DM1, 32B5-MCC-DM1 and 29C12-MCC-DM1 ADCs were tested for the ability to target and kill BCMA-expressing myeloma cells (H929). The CellTiter-Glo® Luminescent Cell Viability Assay is a homogeneous method to determine the number of viable cells in culture based on quantitation of the ATP present, which signals the presence of metabolically active cells. […] Luminescence was read on an EnVision™ Multilabel reader (PerkinElmer) or Analyst HT plate reader (LJL Biosciences). […]

MM1S = assay: CellTiter-Glo Luminescent Cell Viability Assay, MM1S
Procedure: as §1, §2

H929 cells = assay: CellTiter-Glo Luminescent Cell Viability Assay, H929
Procedure: The ADCs were tested for the ability to target and kill BCMA-expressing myeloma cells. The CellTiter-Glo® Luminescent Cell Viability Assay is a homogeneous method to determine the number of viable cells in culture based on quantitation of the ATP present, which signals the presence of metabolically active cells. The CellTiter-Glo® Assay is applicable to cytotoxicity assays (see http://www.promega.com/products/cell-health-assays/cell-viability-assays/celltiterglo-luminescent-cell-viability-assay/ for more information). The cell viability assay was used to assess the relative killing capacity of various ADCs on various multiple myeloma cell lines and B-cell lines. The protocol provided in the Cell Titer-Glo kit (Promega G7572) was followed. In short, 5×10^3 target cells in 90 ul RPMI 1640, 10% FBS were aliquoted into clear, flat bottom, white walled 96 well plates (Costar #3903). The ADCs were diluted into a 10× stock to create 500 nM maytansine drug equivalents. Each ADC was serially diluted in 2-fold dilutions in RPMI 1640, 10% FBS starting with 500 nM stock. 10 ul of the 10×ADC dilution series was added to the 90 ul of cells in media (triplicate wells). […] Luminescence was read on an EnVision™ Multilabel reader (PerkinElmer) or Analyst HT plate reader (LJL Biosciences). The data was analyzed and graphed using GraphPad Prism™ to determine the relative efficacy of the ADCs on various cancer cell lines.
The 2A1CV5-MCC-DM1, 32B5-MCC-DM1 and 29C12-MCC-DM1 ADCs were tested for the ability to target and kill BCMA-expressing myeloma cells (H929). The CellTiter-Glo® Luminescent Cell Viability Assay is a homogeneous method to determine the number of viable cells in culture based on quantitation of the ATP present, which signals the presence of metabolically active cells. […] Luminescence was read on an EnVision™ Multilabel reader (PerkinElmer) or Analyst HT plate reader (LJL Biosciences). The data was analyzed and graphed using GraphPad Prism™ to determine the relative efficacy of the ADCs on various cancer cell lines.

KMS11 = assay: CellTiter-Glo Luminescent Cell Viability Assay, KMS11
Procedure: as §1, §2

U266 = assay: CellTiter-Glo Luminescent Cell Viability Assay, U266
Procedure: as §1, §2

B1: 2A1CV5-MCC-DM1 (conjugate)
heavy: EVQLVESGGGLVKPGGSLRLSCAASGFTFGDYALSWFRQAPGKGLEWVGVSRSKAYGGTTDYAASVKGRFTISRDDSKSTAYLQMNSLKTEDTAVYYCASSGYSSGWTPFDYWGQGTLVTVSSASTKGPSVFPLAPSSKSTSGGTAALGCLVKDYFPEPVTVSWNSGALTSGVHTFPAVLQSSGLYSLSSVVTVPSSSLGTQTYICNVNHKPSNTKVDKKV[omitted - human IgG1 Fc]
light: QSVLTQPPSASGTPGQRVTISCSGSSSNIGSNTVNWYQQLPGTAPKLLIFNYHQRPSGVPDRFSGSKSGSSASLAISGLQSEDEADYYCAAWDDSLNGWVFGGGTKLTVLGQPKAAPSVTLFPPSSEELQANKATLVCLISDFYPGAVTVAWKADSSPVKAGVETTTPSKQSNNKYAASSYLSLTPEQWKSHRSYSCQVTHEGSTVEKTVAPTECS
Cell line killed by BCMA ADC (KMS28PE): Yes
Cell line killed by BCMA ADC (MM1S): Yes
killing of huBCMA-expressing myeloma cells (H929) (H929 cells; CellTiter-Glo): able to target and kill BCMA-expressing myeloma cells (H929)
Cell line killed by BCMA ADC (H929 cells; H929): Yes
increase in potency over 32B5-MCC-DM1 and 29C12-MCC-DM1 (H929 cells; H929 cells): 2-3 fold
Cell line killed by BCMA ADC (KMS11): Yes
Cell line killed by BCMA ADC (U266): Yes
